The target of one assay is T1, CRF2R (Homo sapiens, UniProt Q13324).
T1 sequence (Q13324 1-411): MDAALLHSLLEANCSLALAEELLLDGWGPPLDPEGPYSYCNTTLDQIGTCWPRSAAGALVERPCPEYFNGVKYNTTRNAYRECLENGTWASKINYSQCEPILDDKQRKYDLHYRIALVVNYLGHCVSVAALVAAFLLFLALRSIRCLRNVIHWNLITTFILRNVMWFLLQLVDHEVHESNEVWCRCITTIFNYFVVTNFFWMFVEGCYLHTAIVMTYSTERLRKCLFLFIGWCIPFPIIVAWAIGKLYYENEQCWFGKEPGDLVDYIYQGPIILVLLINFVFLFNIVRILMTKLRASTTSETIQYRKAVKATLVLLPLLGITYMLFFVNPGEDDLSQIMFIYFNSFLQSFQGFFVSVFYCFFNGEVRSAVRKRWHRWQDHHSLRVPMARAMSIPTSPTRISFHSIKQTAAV
The assay can be described thus: CRF2R agonist activity (EC50, Emax), called comparative CRF binding. Type of assay: cell-based. In outline: (§1)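 Recombinant CRF1R or CRF2R cells were exposed to peptide. Reporter expression linked to cAMP response element was then quantitated, relative to vehicle control.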

For another assay, the target named is T2, CRF1R (Homo sapiens, UniProt P34998).
T2 sequence (P34998 24-415): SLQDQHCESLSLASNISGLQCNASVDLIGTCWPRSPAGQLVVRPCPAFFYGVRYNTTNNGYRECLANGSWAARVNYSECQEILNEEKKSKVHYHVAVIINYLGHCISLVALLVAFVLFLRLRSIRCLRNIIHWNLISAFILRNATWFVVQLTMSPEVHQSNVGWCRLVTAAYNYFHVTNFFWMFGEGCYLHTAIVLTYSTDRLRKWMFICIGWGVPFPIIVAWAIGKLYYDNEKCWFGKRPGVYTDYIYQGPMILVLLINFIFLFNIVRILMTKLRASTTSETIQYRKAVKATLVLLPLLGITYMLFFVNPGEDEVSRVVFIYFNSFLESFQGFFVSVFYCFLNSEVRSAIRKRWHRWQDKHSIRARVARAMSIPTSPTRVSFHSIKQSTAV
The experiment in a line: CRF1R agonist activity (EC50, Emax), called comparative CRF binding. The assay is classed as cell-based. The procedure, abridged: as §1

The values below come from patent US7192924B2, “Corticotropin releasing factor 2 receptor agonists” (priority 2002, dated 2007).

Like-named read-outs stand apart in the source and are kept apart here. Bounds are passed on as bounds.

As usually defined, the EC50 is the concentration that produces a half-maximal response. In the case of `CC[C@H](C)[C@H](NC(=O)[C@H](CCCNC(=N)N)NC(=O)[C@H](C)NC(=O)[C@H](CC(N)=O)NC(=O)[C@@H](NC(=O)[C@@H](NC(=O)[C@H](C)NC(=O)[C@H](CCC(N)=O)NC(=O)[C@H](CCC(N)=O)NC(=O)[C@H](CCCCN)NC(=O)[C@H](CCC(=O)O)NC(=O)[C@H](CCCCN)NC(=O)[C@H](CCC(=O)O)NC(=O)[C@H](CCC(N)=O)NC(=O)[C@H](CCCCN)NC(=O)[C@H](CCC(=O)O)NC(=O)[C@@H](NC(=O)[C@H](CCC(=O)O)NC(=O)[C@@H](NC(=O)[C@H](CCSC)NC(=O)[C@H](CCCCN)NC(=O)[C@H](CCCNC(=N)N)NC(=O)[C@H](CC(C)C)NC(=O)[C@H](CC(C)C)NC(=O)[C@H](CCC(N)=O)NC(=O)[C@@H](NC(=O)[C@@H]1CCCN1C(=O)[C@H](CC(C)C)NC(=O)[C@H](CC(=O)O)NC(=O)[C@@H](NC(=O)[C@H](CO)NC(=O)[C@@H](NC(=O)[C@@H]1CCCN1C(=O)[C@@H]1CCCN1C(=O)CNC(=O)[C@@H]1CCC(=O)N1)[C@@H](C)CC)[C@@H](C)CC)[C@@H](C)CC)[C@@H](C)CC)[C@@H](C)CC)[C@@H](C)O)[C@@H](C)O)C(=O)N[C@@H](CC(C)C)C(=O)N[C@@H](C)C(=O)N[C@@H](CCCNC(=N)N)C(=O)N[C@H](C(N)=O)C(C)C` [compound 150], the figures for the 50% effective concentration (EC50) on CRF2R (read-out: CRF2R EC50) and on CRF1R (read-out: CRF1R EC50) were 34.6 nM and at least 1000 nM, respectively.

With `CC[C@H](C)[C@H](NC(=O)[C@@H](NC(=O)[C@H](CC(=O)O)NC(=O)[C@H](CC(C)C)NC(=O)[C@H](CC(C)C)NC(=O)[C@H](CC(C)C)NC(=O)[C@H](CCCNC(=N)N)NC(=O)[C@H](CC(N)=O)NC(=O)[C@H](CC(N)=O)NC(=O)[C@H](C)NC(=O)[C@H](C)NC(=O)[C@H](CCC(N)=O)NC(=O)[C@H](CCC(N)=O)NC(=O)[C@H](CCCCN)NC(=O)[C@H](CCC(=O)O)NC(=O)[C@H](CCCCN)NC(=O)[C@H](CCC(=O)O)NC(=O)[C@H](CCC(N)=O)NC(=O)[C@H](CCCCN)NC(=O)[C@H](CCC(=O)O)NC(=O)[C@@H](NC(=O)[C@H](CCC(=O)O)NC(=O)[C@@H](NC(=O)[C@H](CCSC)NC(=O)[C@H](CCCCN)NC(=O)[C@H](CCCNC(=N)N)NC(=O)[C@H](CC(C)C)NC(=O)[C@H](CC(C)C)NC(=O)CNC(=O)[C@@H](NC(=O)[C@@H]1CCCN1C(=O)[C@@H](NC(=O)[C@H](CC(=O)O)NC(=O)[C@H](CC(C)C)NC(=O)[C@H](CO)NC(=O)[C@H](CC(C)C)NC(=O)[C@@H](NC(=O)[C@@H](NC(=O)CNC(=O)[C@@H]1CCC(=O)N1)[C@@H](C)CC)C(C)C)C(C)C)[C@@H](C)CC)[C@@H](C)CC)[C@@H](C)CC)[C@@H](C)O)C(N)=O` [compound 153], the results for the concentration for a half-maximal effect (EC50) on CRF2R (read-out: CRF2R EC50) and at CRF1R (read-out: CRF1R EC50) were 9.28 nM and above 100 nM, respectively.

For the compound `CC[C@H](C)[C@H](NC(=O)[C@H](CCCNC(=N)N)NC(=O)[C@H](C)NC(=O)[C@H](CC(N)=O)NC(=O)[C@@H](NC(=O)[C@@H](NC(=O)[C@H](C)NC(=O)[C@H](CCC(N)=O)NC(=O)[C@H](CCC(=O)O)NC(=O)[C@H](CCCNC(=N)N)NC(=O)[C@H](C)NC(=O)[C@H](C)NC(=O)[C@H](CCCNC(=N)N)NC(=O)[C@H](C)NC(=O)[C@H](CCCNC(=N)N)NC(=O)[C@H](C)NC(=O)[C@H](CCC(N)=O)NC(=O)[C@H](CCC(=O)O)NC(=O)[C@@H](NC(=O)[C@H](CCSC)NC(=O)[C@H](CCCCN)NC(=O)[C@H](CCCNC(=N)N)NC(=O)[C@H](CC(C)C)NC(=O)[C@H](CC(C)C)NC(=O)[C@H](CCC(=O)O)NC(=O)[C@H](CC(C)C)NC(=O)[C@H](CO)NC(=O)[C@H](CC(C)C)NC(=O)[C@H](CC(=O)O)NC(=O)[C@@H](NC(=O)[C@H](CO)NC(=O)[C@@H](NC(=O)[C@@H]1CCCN1C(=O)[C@@H]1CCCN1C(=O)CNC(=O)[C@@H]1CCC(=O)N1)[C@@H](C)CC)[C@@H](C)CC)[C@@H](C)CC)[C@@H](C)O)[C@@H](C)O)C(=O)N[C@@H](CC(C)C)C(=O)N[C@@H](C)C(=O)N[C@@H](CCCNC(=N)N)C(=O)N[C@H](C(N)=O)C(C)C` [compound 156], the EC50 on CRF2R is 9.29 nM; on CRF1R, above 100 nM.

Turning to `CC[C@H](C)[C@H](NC(=O)[C@H](CCCNC(=N)N)NC(=O)[C@H](C)NC(=O)[C@H](CC(N)=O)NC(=O)[C@@H](NC(=O)[C@@H](NC(=O)[C@H](C)NC(=O)[C@H](CCC(N)=O)NC(=O)[C@H](CCC(N)=O)NC(=O)[C@H](CCCCN)NC(=O)[C@H](CCC(=O)O)NC(=O)[C@H](CCCCN)NC(=O)[C@H](CCC(=O)O)NC(=O)[C@H](CCC(N)=O)NC(=O)[C@H](CCCCN)NC(=O)[C@H](CCC(=O)O)NC(=O)[C@@H](NC(=O)[C@H](CCC(=O)O)NC(=O)[C@@H](NC(=O)[C@H](CC(C)C)NC(=O)[C@@H](NC(=O)[C@H](CCCNC(=N)N)NC(=O)[C@H](CC(C)C)NC(=O)[C@H](CC(C)C)NC(=O)[C@H](CCC(N)=O)NC(=O)[C@H](Cc1ccccc1)NC(=O)[C@@H]1CCCN1C(=O)[C@@H](NC(=O)[C@H](CC(=O)O)NC(=O)[C@@H](NC(=O)[C@H](CO)NC(=O)[C@@H](NC(=O)[C@@H]1CCCN1C(=O)[C@@H]1CCCN1C(=O)CNC(=O)[C@@H]1CCC(=O)N1)[C@@H](C)CC)[C@@H](C)CC)C(C)C)[C@@H](C)CC)[C@@H](C)CC)[C@@H](C)CC)[C@@H](C)O)[C@@H](C)O)C(=O)N[C@@H](CC(C)C)C(=O)N[C@@H](C)C(=O)N[C@@H](CCCNC(=N)N)C(=O)N[C@H](C(N)=O)C(C)C` [compound 171], the concentration for a half-maximal effect (EC50) is 17.6 nM at CRF2R and 206 nM on CRF1R.

In the case of `CC[C@H](C)[C@H](NC(=O)[C@H](CCCNC(=N)N)NC(=O)[C@H](C)NC(=O)[C@H](CC(N)=O)NC(=O)[C@@H](NC(=O)[C@@H](NC(=O)[C@H](C)NC(=O)[C@H](CCC(N)=O)NC(=O)[C@H](CCC(N)=O)NC(=O)[C@H](CCCCN)NC(=O)[C@H](CCC(=O)O)NC(=O)[C@H](CCCCN)NC(=O)[C@H](CCC(=O)O)NC(=O)[C@H](CCC(N)=O)NC(=O)[C@H](CCCCN)NC(=O)[C@H](CCC(=O)O)NC(=O)[C@@H](NC(=O)[C@H](CCC(=O)O)NC(=O)[C@@H](NC(=O)[C@H](CCSC)NC(=O)[C@H](CCCCN)NC(=O)[C@H](CCCNC(=N)N)NC(=O)[C@H](CC(C)C)NC(=O)[C@H](CC(C)C)NC(=O)[C@H](CCC(N)=O)NC(=O)[C@H](Cc1ccccc1)NC(=O)[C@@H]1CCCN1C(=O)[C@@H](NC(=O)[C@H](CC(=O)O)NC(=O)[C@@H](NC(=O)[C@H](CO)NC(=O)[C@@H](NC(=O)[C@@H]1CCCN1C(=O)[C@@H]1CCCN1C(=O)CNC(=O)[C@@H]1CCC(=O)N1)[C@@H](C)CC)[C@@H](C)CC)C(C)C)[C@@H](C)CC)[C@@H](C)CC)[C@@H](C)O)[C@@H](C)O)C(=O)N[C@@H](CC(C)C)C(=O)N[C@@H](C)C(=O)N[C@@H](CCCNC(=N)N)C(=O)N[C@H](C(N)=O)C(C)C` [compound 172], the figures for the EC50 on CRF2R and at CRF1R were 13.5 nM and at least 1000 nM, respectively.

With `CC[C@H](C)[C@H](NC(=O)[C@@H](NC(=O)[C@H](CC(=O)O)NC(=O)[C@H](CC(C)C)NC(=O)[C@H](CC(C)C)NC(=O)[C@H](CC(C)C)NC(=O)[C@H](CCCNC(=N)N)NC(=O)[C@H](CC(N)=O)NC(=O)[C@H](CC(N)=O)NC(=O)[C@H](C)NC(=O)[C@H](C)NC(=O)[C@H](CCC(N)=O)NC(=O)[C@H](CCC(N)=O)NC(=O)[C@H](CCCCN)NC(=O)[C@H](CCC(=O)O)NC(=O)[C@H](CCCCN)NC(=O)[C@H](CCC(=O)O)NC(=O)[C@H](CCC(N)=O)NC(=O)[C@H](CCCCN)NC(=O)[C@H](CCC(=O)O)NC(=O)[C@@H](NC(=O)[C@H](CCC(=O)O)NC(=O)[C@@H](NC(=O)[C@H](CCSC)NC(=O)[C@H](CCCCN)NC(=O)[C@H](CCCNC(=N)N)NC(=O)[C@H](CC(C)C)NC(=O)[C@H](CC(C)C)NC(=O)[C@H](Cc1c[nH]c2ccccc12)NC(=O)[C@H](Cc1c[nH]cn1)NC(=O)[C@@H]1CCCN1C(=O)[C@H](CC(C)C)NC(=O)[C@H](CC(=O)O)NC(=O)[C@@H](NC(=O)[C@H](CO)NC(=O)[C@@H](NC(=O)[C@@H]1CCCN1C(=O)[C@@H]1CCCN1C(=O)CNC(=O)[C@@H]1CCC(=O)N1)[C@@H](C)CC)[C@@H](C)CC)[C@@H](C)CC)[C@@H](C)CC)[C@@H](C)O)C(N)=O` [compound 186], the figures for the concentration giving a half-maximal response (EC50) at CRF2R and on CRF1R were 25.1 nM and 323 nM, respectively.
